PubChem BioAssay AID2227 (Johns Hopkins Ion Channel Center, 2009)
Only a part is listed here, and it is no random draw. Activity calls are given as the source filed them.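 Rule for the calls: active = B-score of calcium response area above 5 SD of library B-scores, with initial fluorescence ratio within 5 SD of library; inactive = the rest.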

Chains of the proteins cited; added tags and fusions are not shown.
UniProt Q9QUQ5, whole entry: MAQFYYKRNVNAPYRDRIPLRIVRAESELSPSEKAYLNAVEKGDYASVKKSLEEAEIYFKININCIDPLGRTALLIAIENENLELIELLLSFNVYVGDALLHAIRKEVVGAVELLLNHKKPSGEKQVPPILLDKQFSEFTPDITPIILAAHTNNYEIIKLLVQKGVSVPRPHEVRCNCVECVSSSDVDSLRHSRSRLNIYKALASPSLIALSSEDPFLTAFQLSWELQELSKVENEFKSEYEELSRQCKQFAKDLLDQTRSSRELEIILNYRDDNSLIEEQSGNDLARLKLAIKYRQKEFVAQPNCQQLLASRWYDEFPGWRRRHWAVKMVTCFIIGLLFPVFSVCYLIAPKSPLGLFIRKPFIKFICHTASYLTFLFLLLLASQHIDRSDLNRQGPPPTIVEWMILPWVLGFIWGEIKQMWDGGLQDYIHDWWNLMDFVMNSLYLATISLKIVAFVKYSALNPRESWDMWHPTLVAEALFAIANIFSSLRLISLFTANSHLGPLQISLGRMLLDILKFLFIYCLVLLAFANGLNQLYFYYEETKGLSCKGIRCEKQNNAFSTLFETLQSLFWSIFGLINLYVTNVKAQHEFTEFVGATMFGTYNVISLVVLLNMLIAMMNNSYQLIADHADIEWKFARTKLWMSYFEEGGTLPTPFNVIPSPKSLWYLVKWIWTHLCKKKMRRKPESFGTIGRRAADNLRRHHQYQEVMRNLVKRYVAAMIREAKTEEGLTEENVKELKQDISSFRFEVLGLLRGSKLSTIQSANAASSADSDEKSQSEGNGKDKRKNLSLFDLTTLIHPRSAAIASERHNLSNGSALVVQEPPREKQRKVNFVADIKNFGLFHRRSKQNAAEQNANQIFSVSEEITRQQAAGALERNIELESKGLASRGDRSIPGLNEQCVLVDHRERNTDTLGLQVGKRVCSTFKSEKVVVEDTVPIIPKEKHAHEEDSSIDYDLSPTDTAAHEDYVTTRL

The compounds below were run against Short transient receptor potential channel 4 (Mus musculus) (UniProt Q9QUQ5) (assay: positive allosteric modulators of TRPC4, primary screen, cell-based, mouse TRPC4beta, HEK293 mu-opioid, Fluo-4 calcium (AID 2227)). Details: DAMGO EC20, Fluo-4 Ca2+ flux, at 10 µM.

Row | SMILES | outcome
1 | CC(C)(C)OC(=O)N1CCC(N(C(=O)c2ccccc2)c2ccc(Cl)cc2)CC1 | inactive
2 | N#Cc1ccc(C(=O)NCC2(N3CCCCC3)CCCCC2)cc1 | inactive
3 | c1ccc(CN2CCC(Nc3ccccc3)CC2)cc1 | inactive
4 | CCCN1CCC(Nc2cc(OC)cc(OC)c2)CC1 | inactive
5 | CN(C)C1(CNC(=O)c2cccc(C#N)c2)CCCCC1 | inactive
6 | COc1ccc(C(=O)NCC2(N3CCOCC3)CCCCC2)cc1OC | inactive
7 | O=C(OC1CN2CCC1CC2)C1c2ccccc2C=Cc2ccccc21 (stereo not given) | inactive
8 | CCc1cc(C(=O)NCC2(N3CCCCC3)CCCCC2)sc1C | inactive
9 | N/C(=N\O)c1c(N)no[n+]1[O-] | inactive
10 | CCOC(=O)N1CCC(Nc2ccc(C)cc2)CC1 | inactive
11 | CCCOc1ccc(C(=O)NCC2(N(C)C)CCCCC2)cc1 | inactive
12 | CC(C)(C)OC(=O)N1CCC(Nc2ccccc2)CC1 | inactive
13 | O=C(O)C1(Nc2ccccc2)CCN(Cc2ccccc2)CC1 | inactive
14 | CCOc1ncccc1C(=O)NCC1(N2CCOCC2)CCCCC1 | inactive
15 | CN1CCC(Nc2ccc(F)c(Cl)c2)CC1 | inactive
16 | CCCOc1ccc(C)cc1CN(CCCl)CCCl | inactive
17 | CN1CCC(Nc2ccc(Cl)cc2)CC1 | inactive
18 | CCC(CO)(C(=O)OC1CN2CCC1CC2)c1ccccc1 (stereo not given) | inactive
19 | COc1cccc(C(=O)N(c2cc(C)cc(C)c2)C2CCN(C(=O)OC(C)(C)C)CC2)c1 | inactive
20 | COc1cc(OC)cc(C(=O)NCC2(N3CCOCC3)CCCCC2)c1 | inactive
21 | Cc1ccc(C(=O)NCC2(N3CCCCC3)CCCCC2)o1 | inactive
22 | Fc1ccccc1NC1CCN(Cc2ccccc2)CC1 | inactive
23 | COc1cc(OC)cc(C(=O)NCC2(N3CCCCC3)CCCCC2)c1 | inactive
24 | CN(C)c1ccc(C(=O)NCC2(N3CCCCC3)CCCCC2)cc1 | inactive
25 | CCN1CCC(Nc2cccc(F)c2)CC1 | inactive
